## Vapor pressure values, as collected for the OPERA models

From the experimental data distributed with OPERA 2.9.

Vapor pressure is log10 of mmHg; the set covers 15 to 30 °C, mostly 20 to 25 °C. Cells with "n/a" have no entry in this list.

structure (SMILES) | name | vapor pressure (log10 mmHg)
C=CC(F)(F)C(F)(F)C(F)(F)C(F)(F)I | 3,3,4,4,5,5,6,6-Octafluoro-6-iodohex-1-ene | 0.824
C=C(C)C(=O)OC1CCCCC1 | Cyclohexyl methacrylate | -0.821
Clc1cc(Cl)cc(-c2cc(Cl)ccc2Cl)c1 | n/a | -4.245
CCO[Si](CC(C)C)(OCC)OCC | Triethoxy(2-methylpropyl)silane | -0.521
CC(=O)CC(=O)Nc1ccccc1Cl | 2'-Chloroacetoacetanilide | -5.951
NC(CC(=O)O)C(=O)[O-].[Na+] (stereo not drawn) | Monosodium aspartate | -5.398
Cc1ncoc1C#N | 4-Methyloxazole-5-carbonitrile | 0.403
c1ccc(-c2noc(-c3cccs3)n2)cc1 | 3-Phenyl-5-(2-thienyl)-1,2,4-oxadiazole | -6.235
CCCC/C=C\CCCCCCCCOC(C)=O | (Z)-9-Tetradecenyl acetate | -5.893
CCOc1ccc(-c2nc(-c3ccccc3)nc(-c3ccccc3O)n2)cc1 | 2-[4-(4-Ethoxyphenyl)-6-phenyl-1,3,5-triazin-2-yl]phenol | -10.17
C=CC(F)(F)C(F)(F)C(F)(F)C(F)(F)C(F)(F)C(F)(F)C=C | 1,6-Divinylperfluorohexane | 0.937
Cc1ccc([N+](=O)[O-])cc1Cl | 2-Chloro-1-methyl-4-nitrobenzene | -2.307
O=C1CCCC(=O)C1 | 1,3-Cyclohexanedione | -3.87
CC(C)(c1ccc(Oc2ccc(N)cc2)cc1)c1ccc(Oc2ccc(N)cc2)cc1 | 4,4'-(Isopropylidenebis(4,1-phenyleneoxy))dianiline | -9.772
CCCCCCCC(=O)NCCN(CCO)CCC(=O)O | n/a | -4.958
C=COC(=O)CCCCC(C)(C)C | Vinyl neononanoate | -0.166
CCCOC(C)OCCC | Propane, 1,1'-[ethylidenebis(oxy)]bis- | 0.404
C=C(C)C(=O)OCCN1CCOC1 | 2-(3-Oxazolidinyl)ethyl methacrylate | -1.824
ClCCC[Si](Cl)(Cl)Cl | Trichloro(3-chloropropyl)silane | -0.112
CC(C)=CCCC(C)=CC#N | Citralva | -1.557
CCCCCCCCCCCCCCCCCCO[Si](C)(C)OCCCCCCCCCCCCCCCCCC | Silane, dimethylbis(octadecyloxy)- | -5.523
CCC[C@H]1CC[C@H](C2CC=C(c3ccc(OCC)c(F)c3F)CC2)CC1 (some centres not stated) | n/a | -7.714
Fc1c(Cl)ncnc1Cc1ccccc1Cl | 4-Chloro-6-(2-chlorophenoxy)-5-fluoropyrimidine | -2.451
CO[Si](C)(CNc1ccccc1)OC | N-{[Dimethoxy(methyl)silyl]methyl}aniline | -2.512
Cc1cc2c(c(C3CCCCC3)c1)OP(O)Oc1c(cc(C)cc1C1CCCCC1)C2 | n/a | -6.412
C=CC1COC(CC(C)C)O1 (stereo not drawn) | 2-Isobutyl-4-vinyl-1,3-dioxolane | 0.143
CCC(N)(CO)CO | 2-Amino-2-ethyl-1,3-propanediol | -2.663
CCCCOCCCN | 1-Propanamine, 3-butoxy- | -0.014
CCCCCCOCC(O)CO (stereo not drawn) | 3-Hexyloxypropylene glycol | -3.234
O=C(O)c1ccc(/N=N/c2c(O)ccc3cc(S(=O)(=O)[O-])ccc23)cc1.O=C(O)c1ccc(/N=N/c2c(O)ccc3cc(S(=O)(=O)[O-])ccc23)cc1.[Sr+2] | C.I. Pigment Orange 79 | -7.011
C[C@]12CCC(=O)C=C1CC[C@@H]1[C@@H]2CC[C@@]2(C)[C@H]1CC[C@@]2(O)CCCO | (17beta)-17-Hydroxy-17-(3-hydroxypropyl)androst-4-en-3-one | -13.4
C=CC(C)(O)CCC=C(C)CCC=C(C)C (stereo not drawn) | Nerolidol | -2.639
COC=C(C(=O)OC)c1ccccc1CCl | Methyl 2-(2-(chloromethyl)phenyl)-3-methoxyacrylate | -4.472
Fc1cccc(C(F)(F)F)n1 | 2-Fluoro-6-(trifluoromethyl)pyridine | 0.623
O=C(OCCCc1ccccc1)c1ccccc1 | 3-phenylpropyl benzoate | -3.894
CNC(=O)NC | N,N'-Dimethylurea | -3.502
C=C[C@H]1CC[C@H]([C@H]2CC[C@H](CCC)CC2)CC1 | n/a | -3.771
Cc1ccc2c(c1)CC[C@H]([C@H]1CO1)O2 | n/a | -2.914
I/C=C/I | (E)-1,2-Diiodoethylene | -0.23
C=COC(=O)c1ccccc1 | Vinyl benzoate | -1.276
C=C(COC(C)=O)COC(C)=O | 2-Methylenepropane-1,3-diyl diacetate | -1.648
CCCC(O)CC[C@@H]1[C@@H](C)CCCC1(C)C (stereo in doubt) | n/a | -3.185
Nc1ccc(N=Nc2ccccc2)c(N)c1 | 2,4-Diaminoazobenzene | -5.818
ClCc1ccc(-c2ccc(CCl)cc2)cc1 | 4,4'-Bis(chloromethyl)-1,1'-biphenyl | -3.462
CCCc1ccc(-c2ccc(B(O)O)c(F)c2)cc1 | (3-Fluoro-4'-propyl[1,1'-biphenyl]-4-yl)boronic acid | -6.042
CC(C)(c1cc(Br)c(O)c(Br)c1)c1cc(Br)c(O)c(Br)c1 | 3,3',5,5'-Tetrabromobisphenol A | -7.19
COc1cccc(C)c1C(=O)O | 2-Methoxy-6-methylbenzoic acid | -5.805
C[N+](C)([O-])CCCNS(=O)(=O)CCC(F)(F)C(F)(F)C(F)(F)C(F)(F)C(F)(F)C(F)(F)F | n/a | -5.862
CC(=O)OCc1ccc2c(c1)OCO2 | Piperonyl acetate | -2.73
COC(=O)CN(c1cc(NC(C)=O)c(N=Nc2c(Cl)cc([N+](=O)[O-])cc2C#N)cc1OC)C(C)C(=O)OC (stereo not drawn) | n/a | -14.64
O=c1[nH]cn[nH]1 | 3H-1,2,4-Triazol-3-one, 1,2-dihydro- | -4.648
Cc1ccc(C(C)N)cc1 (stereo not drawn) | 1-(4-Methylphenyl)ethanamine | -0.708
CCCCCCCC[Si](C)(C)Cl | Silane, chlorodimethyloctyl- | -0.824

Extract of 8 entries:

| structure (SMILES) | name | vapor pressure (log10 mmHg) |
|---|---|---|
| CNC(=O)NC | N,N'-Dimethylurea | -3.502 |
| NC(CC(=O)O)C(=O)[O-].[Na+] (stereo not drawn) | Monosodium aspartate | -5.398 |
| CCCCOCCCN | 1-Propanamine, 3-butoxy- | -0.014 |
| CCC(N)(CO)CO | 2-Amino-2-ethyl-1,3-propanediol | -2.663 |
| CCCCCCCCCCCCCCCCCCO[Si](C)(C)OCCCCCCCCCCCCCCCCCC | Silane, dimethylbis(octadecyloxy)- | -5.523 |
| C=COC(=O)CCCCC(C)(C)C | Vinyl neononanoate | -0.166 |
| CCO[Si](CC(C)C)(OCC)OCC | Triethoxy(2-methylpropyl)silane | -0.521 |
| C=CC1COC(CC(C)C)O1 (stereo not drawn) | 2-Isobutyl-4-vinyl-1,3-dioxolane | 0.143 |

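These are experimental values that the OPERA curators gathered from public databases to train and test their QSAR models. One number stands for a compound and property, with no spread given. Conditions of the individual experiments are not part of the data. The measured form (salt, isomer or mixture) is not always the one drawn. Some entries may be limits or estimates that an upstream database listed as plain numbers.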